# Ab-14 light chain CDR variants: yeast mating affinities

From the AlphaSeq antibody data of Li et al. 2023 (doi:10.1038/s41467-023-39022-2), copy in the FLAb collection.

Antigen: PDVDLGDISGINAS, a 14-residue peptide of the SARS-CoV-2 spike HR2 region.

Parent scFv Ab-14: VH joined to VL by a (GGGGS)3 linker. Changes lie in the light chain CDRs alone.
VH: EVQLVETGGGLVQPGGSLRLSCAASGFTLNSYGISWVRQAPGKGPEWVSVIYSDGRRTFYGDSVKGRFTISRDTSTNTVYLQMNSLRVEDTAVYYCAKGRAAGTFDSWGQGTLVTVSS
VL: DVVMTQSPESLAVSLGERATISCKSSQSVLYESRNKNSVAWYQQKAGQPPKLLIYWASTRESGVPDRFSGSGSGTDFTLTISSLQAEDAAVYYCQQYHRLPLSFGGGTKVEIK

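The parent was found by panning a naive human phage display library on the peptide. This is the validation round: designs drawn from the data on random variants, tested in the same kind of assay. Their group label is 14L_GP_Gibbs (GP: Gaussian process model; Gibbs: Gibbs sampling; a sequence that several methods proposed may carry one label only). In AlphaSeq, yeast of one mating type display the scFv and yeast of the other type display the target. Mating (16 h, 30 °C) was followed by selection of diploids and sequencing of their barcodes. A regression on co-assayed BCL2-family reference pairs converts the normalised counts of each replicate to an apparent Kd. Mating was done six times.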

The parent's light chain CDRs are KSSQSVLYESRNKNSVA, WASTRES, QQYHRLPLS; each variant's own CDRs replace them letter for letter.
The read-out is the apparent dissociation constant on a log10 scale (nM): the lower, the stronger.
Where no diploid with the target was found in that replicate, the entry reads "nd": below detection, most likely a poor binder, though not proof of it.

| # | CDR-L1 | CDR-L2 | CDR-L3 | replicates, log10 nM | signal with controls |
|---|---|---|---|---|---|
| 1 | KAQQSVGYGERNSNSVA | EASKRES | QQYHRLPLS | 0.63 0.49 0.43 0.14 0.08 0.72 | 2/18 (2.81) |
| 2 | KLSQSQEYESRNKNSVA | DASQRLV | QQYHRLPLS | -0.09 -0.25 -0.36 -0.55 -0.20 -0.14 | 0/18 |
| 3 | KFMQSWLYWSRNKNSVA | NASQREH | QQYHRLPLS | 0.68 0.63 0.76 0.62 0.53 0.76 | 0/18 |
| 4 | KHQGSELYEERNDNSVA | QASQRES | QDYHRLPLS | 1.47 0.68 1.24 1.04 0.30 1.11 | 1/18 (1.71) |
| 5 | KMKQSVDGLDRNKNSVA | QASTREM | QQYHRLPLS | 0.11 0.00 -0.14 -0.15 -0.12 0.18 | 2/18 (2.79) |
| 6 | HQSQSVGQEERQKNSVA | AASTREV | QQYHRLPLS | 0.30 0.27 0.16 0.04 0.13 0.38 | 3/18 (3.51) |
| 7 | KVDQEVGGLSRNQNAVA | AASTRES | QQYHRLPLS | 0.35 0.10 0.34 -0.04 0.08 0.35 | 1/18 (3.87) |
| 8 | KFQQSQLYESRQKNSVA | NASKRCS | QQYHRLPLS | 0.94 0.88 0.86 0.48 0.91 0.87 | 0/18 |
| 9 | KLSFSVWMESRNKNNVA | HASKRES | QQYHRLPLS | 0.81 0.88 1.04 0.21 0.94 0.74 | 0/18 |
| 10 | KVSQEQDYQSRNINSVA | DASLRES | QQYHRLPLS | 1.17 0.59 0.39 0.19 -0.01 0.34 | 2/18 (2.97) |
| 11 | KLDQMCQYESRNKNSVA | NASTRES | QQYHRLPLS | 0.24 0.00 0.04 -0.11 -0.17 0.18 | 1/18 (3.08) |
| 12 | KLQQSQEYESRNKNSVA | DASQRLV | QAYHRLPLS | 0.02 -0.02 -0.38 -0.33 -0.37 0.05 | 1/18 (4.29) |
| 13 | KMSPSELYQDRNSNAVA | QASQRES | QQYHRLPLS | -0.12 -0.29 -0.43 -0.59 -0.56 -0.14 | 0/18 |
| 14 | KVSTSELEESRNKNSVA | WASVREE | QQYHRLPLS | 0.71 0.65 0.42 0.69 0.47 0.66 | 0/18 |
| 15 | KVQQSWLYESRNINNVA | NASKRES | QQYHRLPLH | 0.34 0.32 0.36 0.35 0.41 0.50 | 0/18 |
| 16 | KLGMYVWLESRNKNSVA | QASTREW | QQYHRLPLS | nd 1.16 2.15 3.22 1.52 1.71 | 0/18 |
| 17 | KLSASQLYESRASNAVA | QASTRMD | QQYHRLPLS | -0.24 -0.11 -0.18 0.02 -0.46 -0.19 | 1/18 (2.37) |
| 18 | KLSQSYEYESNNSNSVA | NASQREH | QQYHRLPLS | 1.02 0.73 1.47 1.04 1.17 1.29 | 0/18 |
| 19 | KAPQSDWYESRNKNSVA | SASTRSQ | QQYHRLPLS | 0.20 0.17 -0.14 -0.33 0.05 0.03 | 0/18 |
| 20 | KISQLNLYESRNKNSIA | NANTRES | QQYHRLPLS | -0.07 -0.46 -0.19 -0.29 -0.40 -0.17 | 1/18 (4.08) |
| 21 | KLSQGWLYESREKNSVA | NASQREH | QQYHRLPLS | 0.08 -0.21 -0.25 -0.32 -0.12 0.03 | 2/18 (2.43) |
| 22 | KIEQSVLYEDRNINSVA | NASQRES | QAYHRLPLS | 0.52 1.06 0.89 0.33 1.28 1.60 | 2/18 (2.92) |
| 23 | KMSGSDMMLSRNWNAVA | QASTREQ | QQYHRLPLS | 0.46 0.14 0.30 0.12 0.03 0.59 | 2/18 (2.78) |
| 24 | KLSQSELYEERNDNSVA | SASQRES | QQYHRLPLS | 0.82 0.70 0.29 0.51 0.81 0.79 | 0/18 |
| 25 | KLDQSGLYGSRNKNSVA | EASCRES | QQYHRLPLY | 0.69 0.60 0.94 0.79 0.67 1.11 | 0/18 |
| 26 | KLQQSCLYESRNPNSVA | NASTRYS | QQYHRLPLS | 1.01 0.75 0.57 0.60 0.45 1.08 | 3/18 (2.59) |
| 27 | KLQQQDEYESRNKNSVA | NASTRSQ | QQYHRLPLS | -0.19 -0.15 -0.19 -0.44 -0.38 -0.35 | 2/18 (2.38) |
| 28 | KWSCSHLYDSPNKNSVA | WASTREM | QQYHRLPLS | nd 2.31 nd 3.44 nd 2.97 | 1/18 (2.52) |
| 29 | KIEQSVLYEDRNKNSVA | NASQRES | QAYHRLPLS | 0.21 0.00 -0.15 -0.09 -0.13 -0.02 | 2/18 (2.85) |
| 30 | HLSQSQQYESRNKNSVA | NASTRLH | QQYHRLPLS | 0.39 0.30 -0.01 0.23 0.20 0.53 | 1/18 (2.43) |
| 31 | KLSQAVWYESRNKNSVA | EASLRES | QQYHRLPLS | 0.22 0.08 0.08 0.02 0.16 0.31 | 1/18 (2.21) |
| 32 | KLSQSVLYEQQNWNQVA | ESSTRMS | QQYHRLPLS | -0.01 0.01 0.04 0.10 -0.25 0.37 | 2/18 (2.27) |
| 33 | KLSQSHLYESRMVNNVA | EASYRMD | QQYHRLPLS | 0.34 0.36 0.26 0.42 0.16 0.45 | 2/18 (2.55) |

The parent sequence was in this pool as ten entries: three were never detected, three once, and four in most replicates, with averages from 0.34 to 2.37.
In the paper, a design with two or fewer of six values counts as a poor binder.
Values of this round are not directly comparable with the first-round values of the same sequences.
As a blank, each scFv also met three strains without target: over all light chain designs, 4% of these pairings were detected, typically at 2.64 and seldom below 1.59. For each scFv, signals with the empty controls are counted beside the result, with their mean in brackets.